Target: Phospholipase D2 (Homo sapiens, UniProt O14939)
Settings: 37 °C

Sequences of proteins named here, by UniProt entry; tags and fusion partners are left off. A change or cut given only in a name is not applied to a line headed by its entry.
UniProt O14939: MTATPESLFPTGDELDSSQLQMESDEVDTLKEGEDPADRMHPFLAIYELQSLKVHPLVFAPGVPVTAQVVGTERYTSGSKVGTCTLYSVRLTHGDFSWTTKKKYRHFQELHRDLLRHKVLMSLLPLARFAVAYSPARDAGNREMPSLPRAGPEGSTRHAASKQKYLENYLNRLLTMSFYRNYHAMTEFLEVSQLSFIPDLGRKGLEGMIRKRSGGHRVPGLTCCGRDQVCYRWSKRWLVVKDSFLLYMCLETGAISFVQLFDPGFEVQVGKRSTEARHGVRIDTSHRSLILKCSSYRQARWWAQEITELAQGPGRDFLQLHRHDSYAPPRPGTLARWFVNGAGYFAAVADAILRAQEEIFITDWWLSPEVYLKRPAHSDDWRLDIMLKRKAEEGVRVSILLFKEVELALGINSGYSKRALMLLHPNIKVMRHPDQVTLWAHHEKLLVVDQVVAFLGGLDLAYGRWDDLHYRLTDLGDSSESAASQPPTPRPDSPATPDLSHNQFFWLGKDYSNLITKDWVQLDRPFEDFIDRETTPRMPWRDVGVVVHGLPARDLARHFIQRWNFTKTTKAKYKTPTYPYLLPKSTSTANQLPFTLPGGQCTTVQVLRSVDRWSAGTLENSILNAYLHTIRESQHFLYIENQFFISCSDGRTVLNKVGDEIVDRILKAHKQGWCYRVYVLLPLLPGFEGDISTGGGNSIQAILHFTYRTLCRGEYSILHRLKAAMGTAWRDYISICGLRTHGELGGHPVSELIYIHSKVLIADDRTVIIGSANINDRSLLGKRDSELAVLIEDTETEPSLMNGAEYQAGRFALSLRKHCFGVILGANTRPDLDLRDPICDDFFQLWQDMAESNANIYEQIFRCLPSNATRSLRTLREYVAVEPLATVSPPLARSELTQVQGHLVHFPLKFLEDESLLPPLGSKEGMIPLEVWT

SMILES: O=C(NCCN1CCC2(CC1)C(=O)NCN2c1ccccc1)c1cnc2ccccc2c1
- IC50: 450 nM
